# Values of other authors in patent publication US20100136096A1, “Systems for modulating inflammation” (Searete LLC, a limited liability corporation of the State …, priority 2008, published 2010).
# Chains of the proteins cited; added tags and fusions are not shown. Residues count along the entry.
# UniProt P10721, 26-976: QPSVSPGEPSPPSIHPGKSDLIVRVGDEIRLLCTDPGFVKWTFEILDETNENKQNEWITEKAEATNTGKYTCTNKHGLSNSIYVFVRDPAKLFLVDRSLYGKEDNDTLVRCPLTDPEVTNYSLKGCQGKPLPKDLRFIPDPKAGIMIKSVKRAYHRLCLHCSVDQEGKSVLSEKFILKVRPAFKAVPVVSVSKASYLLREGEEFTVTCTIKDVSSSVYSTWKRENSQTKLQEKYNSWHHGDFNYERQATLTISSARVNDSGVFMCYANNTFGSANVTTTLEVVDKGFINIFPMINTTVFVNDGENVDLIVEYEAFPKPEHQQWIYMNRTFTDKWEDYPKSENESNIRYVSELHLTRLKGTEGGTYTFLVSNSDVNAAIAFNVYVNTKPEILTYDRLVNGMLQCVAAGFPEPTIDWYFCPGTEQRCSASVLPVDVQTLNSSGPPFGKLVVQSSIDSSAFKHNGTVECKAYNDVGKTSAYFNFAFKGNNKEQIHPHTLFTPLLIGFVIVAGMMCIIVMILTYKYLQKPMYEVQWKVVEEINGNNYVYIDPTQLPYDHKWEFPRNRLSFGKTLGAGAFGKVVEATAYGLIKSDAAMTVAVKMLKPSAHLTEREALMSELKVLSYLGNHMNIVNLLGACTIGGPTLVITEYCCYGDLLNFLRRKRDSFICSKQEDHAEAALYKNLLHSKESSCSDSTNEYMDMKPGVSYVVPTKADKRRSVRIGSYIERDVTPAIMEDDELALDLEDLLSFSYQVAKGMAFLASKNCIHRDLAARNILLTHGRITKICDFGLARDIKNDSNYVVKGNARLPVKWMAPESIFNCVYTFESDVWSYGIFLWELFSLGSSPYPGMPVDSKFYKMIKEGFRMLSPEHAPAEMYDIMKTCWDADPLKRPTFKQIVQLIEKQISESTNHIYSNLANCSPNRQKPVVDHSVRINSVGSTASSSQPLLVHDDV
# UniProt P09619, 33-1106: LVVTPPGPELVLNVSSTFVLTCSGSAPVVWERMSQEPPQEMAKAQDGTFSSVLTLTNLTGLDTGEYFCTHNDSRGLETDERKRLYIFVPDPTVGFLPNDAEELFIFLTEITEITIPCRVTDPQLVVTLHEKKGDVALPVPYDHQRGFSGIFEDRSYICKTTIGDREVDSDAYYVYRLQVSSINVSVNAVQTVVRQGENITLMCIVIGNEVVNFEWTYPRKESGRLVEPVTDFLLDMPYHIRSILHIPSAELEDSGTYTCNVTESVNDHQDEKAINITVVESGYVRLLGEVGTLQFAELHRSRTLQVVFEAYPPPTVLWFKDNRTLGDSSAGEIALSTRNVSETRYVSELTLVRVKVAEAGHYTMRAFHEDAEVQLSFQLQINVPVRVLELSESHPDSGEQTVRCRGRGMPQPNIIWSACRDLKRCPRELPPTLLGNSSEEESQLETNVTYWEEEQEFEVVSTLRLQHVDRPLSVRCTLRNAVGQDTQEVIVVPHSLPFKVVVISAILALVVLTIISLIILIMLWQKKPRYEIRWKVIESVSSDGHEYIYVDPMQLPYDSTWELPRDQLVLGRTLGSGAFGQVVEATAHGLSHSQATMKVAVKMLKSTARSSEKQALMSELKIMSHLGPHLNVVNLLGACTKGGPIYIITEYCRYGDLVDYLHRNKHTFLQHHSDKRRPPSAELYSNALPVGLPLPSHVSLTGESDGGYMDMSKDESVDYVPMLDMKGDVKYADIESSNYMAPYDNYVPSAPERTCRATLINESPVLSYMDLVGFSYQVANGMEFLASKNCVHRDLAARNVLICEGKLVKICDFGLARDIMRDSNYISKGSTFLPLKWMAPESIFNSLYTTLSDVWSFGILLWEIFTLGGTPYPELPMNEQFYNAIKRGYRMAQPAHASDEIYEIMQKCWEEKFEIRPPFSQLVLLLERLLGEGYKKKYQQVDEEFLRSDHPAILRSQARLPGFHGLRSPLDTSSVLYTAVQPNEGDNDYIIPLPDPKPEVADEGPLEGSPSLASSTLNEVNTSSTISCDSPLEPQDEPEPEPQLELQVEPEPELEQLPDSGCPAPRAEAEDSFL
# Experiments:
# c-Kit = c-Kit (Homo sapiens, UniProt P10721); conditions: at nanomolar concentrations
# PDGFβ = PDGFβ (Homo sapiens, UniProt P09619); conditions: at nanomolar concentrations
smiles,measurement,setting,value
"Cc1nc(Nc2ncc(C(=O)Nc3c(C)cccc3Cl)s2)cc(N2CCN(CCO)CC2)n1.O [dasatinib, N-(2-chloro-6-methylphenyl)-2-[[6-[4-(2-hydroxyethyl)-1-piperazinyl]-2-methyl-4-pyrimidinyl]amino]-5-thiazolecarboxamide, monohydrate]",inhibition of c-Kit,c-Kit,inhibits
same,inhibition of PDGFβ,PDGFβ,inhibits
